Values of other authors in patent US20140004170A1, “COATING OF A DRUG-ELUTING MEDICAL DEVICE” (CAPSULUTION PHARMA AG, priority 2010, published 2014).
Like-named read-outs stand apart in the source and are kept apart here.

Conditions: pH at which the amphoteric substance has no net charge

For “Serum Albumin: Amphoteric polyelectrolyte, 66 kDa”, the “IEP (positive below, negative above)” value is listed as “positive < IEP 4.7 > negative” and the “IEP (positive below, negative above)” value (listed as Albumin) is listed as “Albumin (IEP ca. 4.6-4.7)”.
